Data taken from BindingDB's records for doi:10.1124/jpet.105.092155 (Acadia Pharmaceuticals, 2005).
“And” between values parts separate entries of the source, which are not always exact repeats. Identical values can stand only once.

Amino acid sequences for entries named in this document (tags omitted). Chains listed by the source or under a name are the forms on record and can include a tag or linker.
UniProt P21917, whole entry: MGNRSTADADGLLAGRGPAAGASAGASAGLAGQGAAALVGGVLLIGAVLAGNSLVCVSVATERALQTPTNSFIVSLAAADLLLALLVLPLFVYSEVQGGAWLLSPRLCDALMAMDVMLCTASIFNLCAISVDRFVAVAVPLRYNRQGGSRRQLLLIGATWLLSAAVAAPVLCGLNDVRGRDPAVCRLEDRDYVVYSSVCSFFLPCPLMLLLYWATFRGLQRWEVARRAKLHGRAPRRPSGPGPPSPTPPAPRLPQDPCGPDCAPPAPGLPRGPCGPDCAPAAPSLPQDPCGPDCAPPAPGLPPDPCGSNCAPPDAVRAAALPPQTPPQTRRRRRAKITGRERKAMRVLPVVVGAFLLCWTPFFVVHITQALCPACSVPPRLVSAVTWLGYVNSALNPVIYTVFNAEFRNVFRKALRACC
UniProt P35462, as listed by the source: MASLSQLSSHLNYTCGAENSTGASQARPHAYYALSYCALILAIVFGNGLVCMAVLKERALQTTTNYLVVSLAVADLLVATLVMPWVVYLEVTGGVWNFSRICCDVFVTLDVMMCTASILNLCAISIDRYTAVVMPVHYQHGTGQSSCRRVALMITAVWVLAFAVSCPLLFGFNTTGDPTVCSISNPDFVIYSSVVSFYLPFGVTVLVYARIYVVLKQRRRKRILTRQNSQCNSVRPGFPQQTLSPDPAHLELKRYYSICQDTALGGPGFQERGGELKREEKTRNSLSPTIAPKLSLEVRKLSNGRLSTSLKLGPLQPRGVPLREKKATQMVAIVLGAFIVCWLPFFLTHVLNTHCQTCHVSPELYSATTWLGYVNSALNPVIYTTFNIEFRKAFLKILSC

Columns and labels:
[1] = target: D(4) dopamine receptor (Homo sapiens, UniProt P21917)
[2] = target: D(3) dopamine receptor (Homo sapiens, UniProt P35462)

With `CCN1CCCC1CNC(=O)c1cc(S(N)(=O)=O)ccc1OC` (configuration not stated) [N-[(1-ethylpyrrolidin-2-yl)methyl]-2-methoxy-5-sulfamoylbenzamide] as the compound, how does the Ki [1] read?
Its Ki is 54 nM.

And the Ki [2]?
The Ki was 7.9 nM and 8.2 nM.
